The values that follow are results of earlier work, collected in patent US9408887B2, “Intermittent dosing regimen for treating breast cancer” (New York University, priority 2011, dated 2016).

Sequences of proteins named here, by UniProt entry; tags and fusion partners are left off.
UniProt P31391, whole entry, species assumed: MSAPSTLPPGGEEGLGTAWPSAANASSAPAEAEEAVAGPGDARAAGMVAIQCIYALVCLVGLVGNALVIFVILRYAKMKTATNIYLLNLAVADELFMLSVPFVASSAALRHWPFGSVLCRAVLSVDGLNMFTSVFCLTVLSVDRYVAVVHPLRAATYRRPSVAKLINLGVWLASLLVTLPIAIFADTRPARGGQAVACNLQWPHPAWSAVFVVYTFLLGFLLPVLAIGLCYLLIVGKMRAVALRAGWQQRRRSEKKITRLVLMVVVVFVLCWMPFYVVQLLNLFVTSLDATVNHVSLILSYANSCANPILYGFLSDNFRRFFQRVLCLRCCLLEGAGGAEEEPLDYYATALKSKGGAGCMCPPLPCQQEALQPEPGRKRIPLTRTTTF
UniProt P30872, whole entry, species assumed: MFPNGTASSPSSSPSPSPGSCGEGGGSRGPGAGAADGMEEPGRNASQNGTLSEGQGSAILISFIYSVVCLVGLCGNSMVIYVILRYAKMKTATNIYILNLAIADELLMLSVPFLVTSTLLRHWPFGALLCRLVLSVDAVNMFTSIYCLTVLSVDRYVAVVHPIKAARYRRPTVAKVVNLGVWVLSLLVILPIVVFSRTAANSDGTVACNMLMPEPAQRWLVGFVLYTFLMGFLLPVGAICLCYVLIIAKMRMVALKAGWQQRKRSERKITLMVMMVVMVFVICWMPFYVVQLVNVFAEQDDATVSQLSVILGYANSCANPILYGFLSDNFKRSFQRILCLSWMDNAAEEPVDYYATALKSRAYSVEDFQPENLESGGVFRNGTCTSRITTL
UniProt P32745, whole entry, species assumed: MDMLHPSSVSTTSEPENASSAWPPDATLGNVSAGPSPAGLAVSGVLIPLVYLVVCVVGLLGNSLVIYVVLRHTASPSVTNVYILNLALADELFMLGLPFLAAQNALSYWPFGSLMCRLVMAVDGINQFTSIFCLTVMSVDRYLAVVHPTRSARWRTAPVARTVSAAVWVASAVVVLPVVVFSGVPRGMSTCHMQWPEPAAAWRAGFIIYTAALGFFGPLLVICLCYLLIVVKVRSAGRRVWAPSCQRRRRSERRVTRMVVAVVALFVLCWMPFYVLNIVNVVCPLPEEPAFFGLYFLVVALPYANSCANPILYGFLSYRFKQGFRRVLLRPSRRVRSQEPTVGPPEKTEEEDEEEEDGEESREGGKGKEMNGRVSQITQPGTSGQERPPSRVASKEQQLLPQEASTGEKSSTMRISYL
UniProt P30874, whole entry, species assumed: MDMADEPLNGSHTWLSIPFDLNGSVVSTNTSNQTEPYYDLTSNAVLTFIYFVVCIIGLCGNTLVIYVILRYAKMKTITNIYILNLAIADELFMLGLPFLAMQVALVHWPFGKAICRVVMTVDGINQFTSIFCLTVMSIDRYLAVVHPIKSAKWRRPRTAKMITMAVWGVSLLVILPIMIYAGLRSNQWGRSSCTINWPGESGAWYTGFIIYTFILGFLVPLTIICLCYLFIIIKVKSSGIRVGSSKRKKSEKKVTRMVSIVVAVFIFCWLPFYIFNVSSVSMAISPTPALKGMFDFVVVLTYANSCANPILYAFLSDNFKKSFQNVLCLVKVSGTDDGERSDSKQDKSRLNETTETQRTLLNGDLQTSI
UniProt P35346, whole entry, species assumed: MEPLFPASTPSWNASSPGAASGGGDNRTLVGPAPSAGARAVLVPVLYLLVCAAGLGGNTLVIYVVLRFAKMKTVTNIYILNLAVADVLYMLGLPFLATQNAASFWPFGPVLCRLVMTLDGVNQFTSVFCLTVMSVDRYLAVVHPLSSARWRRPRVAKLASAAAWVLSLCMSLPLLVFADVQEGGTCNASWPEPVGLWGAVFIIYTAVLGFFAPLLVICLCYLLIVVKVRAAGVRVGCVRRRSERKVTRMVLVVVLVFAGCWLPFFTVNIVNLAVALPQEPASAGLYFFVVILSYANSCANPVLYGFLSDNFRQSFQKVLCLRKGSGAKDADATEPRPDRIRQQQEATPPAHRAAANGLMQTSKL

“Also recorded” adds a separate entry of the source.

Among the targets are SSTR-4 (Homo sapiens, UniProt P31391); SSTR-1 (Homo sapiens, UniProt P30872); SSTR-3 (Homo sapiens, UniProt P32745); SSTR-2 (Homo sapiens, UniProt P30874); SSTR-5 (Homo sapiens, UniProt P35346).
Holding throughout (details): cited from earlier work

Take vapreotide: the “affinity for SSTR-4” value on SSTR-4 is “moderate affinity”. In addition, the “affinity for SSTR-1” value at SSTR-1 is on record as “low affinity”. For the same substance, the “affinity for SSTR-3” value on SSTR-3 is “relatively low affinity; also recorded: moderate affinity”. Further, on SSTR-2, the “affinity for SSTR-2” value is recorded as “high affinity”. In addition, the “affinity for SSTR-5” value at SSTR-5 was “relatively low affinity; also recorded: moderate affinity”.

Consider Octreotide, for which, on SSTR-4, the “affinity for SSTR-4” value is given as “moderate affinity”. For the same substance, the “affinity for SSTR-1” value at SSTR-1 was “low affinity”. Moreover, the “affinity for SSTR-3” value at SSTR-3 is reported as “relatively low affinity; also recorded: moderate affinity”. The “affinity for SSTR-2” value on SSTR-2 was “high affinity”. Besides, on SSTR-5, the “affinity for SSTR-5” value is listed as “relatively low affinity; also recorded: moderate affinity”.
